# Data reported in patent US20220040324A1, “COMBINATION OF ANTIBODY-DRUG CONJUGATE AND KINASE INHIBITOR” (DAIICHI SANKYO COMPANY, LIMITED, priority 2018, published 2022).
# Assays:
# MDA-MB-453 cells [1] = experiment: Antitumor test (5): nude mice with subcutaneously transplanted MDA-MB-453 cells; type: in vivo, human; conditions: single administration; antibody-drug conjugate (1) 0.5 mg/kg iv on Day 0
# Description: (§1) Mouse: 5 to 6-week-old BALB/c nude mice (Charles River Laboratories Japan, Inc.) were subjected to experiment.
# (§2) Assay and calculation expression: In all of the studies, the major axis and minor axis of a tumor were measured twice a week by using an electronic digital caliper (CD15-CX, Mitutoyo Corp.), and the tumor volume (mm^3) was calculated. The calculation expression is as shown below.
# (§3) Tumor volume (mm^3)=1/2×Major axis (mm)×[Minor axis (mm)]^2
# (§4) Everolimus was suspended in 30% propylene glycol and 5% Tween 80, and orally administered at a liquid volume of 10 mL/kg. Taselisib was suspended in 0.5% methyl cellulose and 0.2% Tween 80, and orally administered at a liquid volume of 10 mL/kg. Abemaciclib was suspended in 1% hydroxyethyl cellulose and 0.1% antifoam/25 mM phosphate buffer, pH2, and orally administered at a liquid volume of 10 mL/kg.
# MDA-MB-453 cells, a human breast cancer cell line, purchased from ATCC (American Type Culture Collection) were suspended in Matrigel basement membrane matrix, and 1×10^7 cells were subcutaneously transplanted to the right flank of each female nude mouse, and the mice were randomly grouped 7 days after the transplantation (Day 0). […] Tucatinib was administered once a day, five times a week, at a dose of 100 mg/kg for three weeks.
# KPL-4 cells = experiment: Antitumor test (4): nude mice with subcutaneously transplanted KPL-4 cells; type: in vivo, human; conditions: single administration; antibody-drug conjugate (1) 7.5 mg/kg iv on Day 0
# Description: as §1, §2, §3, §4
# KPL-4 cells, a human breast cancer cell line, obtained from Dr. Junichi Kurebayashi, Kawasaki Medical School (British Journal of Cancer. (1999)79 (5/6). 707-717) were suspended in physiological saline, and 1.5×10^7 cells were subcutaneously transplanted to the right flank of each female nude mouse, and the mice were randomly grouped 17 days after the transplantation (Day 0). […] Tucatinib was suspended in 0.5% methyl cellulose, and orally administered at a liquid volume of 10 mL/kg. […]
# NCI-N87 cell line = type: cell-based, human
# Description: The human gastric cancer cell line NCI-N87 purchased from ATCC was used for evaluation. To a 1536-well cell culture plate, erlotinib (hydrochloride), poziotinib, mubritinib, brigatinib, or BIBF1120 prepared with dimethyl sulfoxide (DMSO) to concentrations of 2 mM, 400 μM, 80 μM, 16 μM, 3.2 μM, and 640 nM, or DMSO was added at 25 nL/well. […] Subsequently, NCI-N87 cells suspended with an RPMI1640 Medium containing 10% fetal bovine serum to a concentration of 4×10^4 cells/mL were seeded at 2.5 μL/well, and cultured at 37° C. under 5% CO2 for 6 days.
# After culturing, a solution obtained by diluting CellTiter-Glo 2.0 Assay (Promega Corporation) with an equivalent amount of Glo Lysis buffer, 1×(Promega Corporation) was added at 2 μL/well, and incubation was performed at room temperature for 1 hour, and luminescence intensity was then measured for each well.
# Cell growth inhibition rate (%) was calculated by using the following calculation expression.
# T: Mean luminescence intensity of wells with specimen B: Mean luminescence intensity of wells with DMSO and medium C: Mean luminescence intensity of wells with DMSO and cells
# Sigmoid fitting with Genedata Screener Analyzer Version 14 (Genedata AG, hereinafter referred to as Screener) was performed for concentration-dependent transition of cell growth inhibition rates under each of combined use conditions.
# JIMT-1 cells = experiment: Antitumor test (2): nude mice with subcutaneously transplanted JIMT-1 cells; type: in vivo, human; conditions: single administration; antibody-drug conjugate (1) 10 mg/kg iv on Day 0
# Description: as §1, §2, §3, §4
# MDA-MB-453 cells [2] = experiment: Antitumor test (1): nude mice with subcutaneously transplanted MDA-MB-453 cells; type: in vivo, human; conditions: single administration; antibody-drug conjugate (1) 0.5 mg/kg intravenously on Day 0; BALB/c nude mice
# Description: as §1, §2, §3, §4
# Everolimus was administered once a day, five times a week, at a dose of 5 mg/kg for 3 weeks. Taselisib was administered once a day, five times a week, at a dose of 5 mg/kg for 3 weeks. Abemaciclib was administered once a day, five times a week, at a dose of 30 mg/kg for 2 weeks.
substance,measurement,setting,value
"antibody-drug conjugate (1): anti-HER2 antibody (SEQ ID NO: 1 residues 1-449, SEQ ID NO: 2 residues 1-214) conjugated to the drug-linker via thioether bond; DAR 7.7 or 7.8",tumor growth inhibition (TGI),MDA-MB-453 cells [1],52%
same,tumor growth inhibition (TGI),KPL-4 cells,78%
same,"Synergy Score, combination with Mubritinib",NCI-N87 cell line,−0.06
same,tumor growth inhibition (TGI),JIMT-1 cells,53%
same,tumor growth inhibition (TGI),MDA-MB-453 cells [2],75%
